Literature values, collected in patent publication US8986954B2, “DNA encoding function modifying Nav1.7 antibodies” (UCB Pharma S.A., priority 2009, dated 2015).

Amino acid sequences for entries named in this document (tags omitted).
UniProt Q15858, whole entry: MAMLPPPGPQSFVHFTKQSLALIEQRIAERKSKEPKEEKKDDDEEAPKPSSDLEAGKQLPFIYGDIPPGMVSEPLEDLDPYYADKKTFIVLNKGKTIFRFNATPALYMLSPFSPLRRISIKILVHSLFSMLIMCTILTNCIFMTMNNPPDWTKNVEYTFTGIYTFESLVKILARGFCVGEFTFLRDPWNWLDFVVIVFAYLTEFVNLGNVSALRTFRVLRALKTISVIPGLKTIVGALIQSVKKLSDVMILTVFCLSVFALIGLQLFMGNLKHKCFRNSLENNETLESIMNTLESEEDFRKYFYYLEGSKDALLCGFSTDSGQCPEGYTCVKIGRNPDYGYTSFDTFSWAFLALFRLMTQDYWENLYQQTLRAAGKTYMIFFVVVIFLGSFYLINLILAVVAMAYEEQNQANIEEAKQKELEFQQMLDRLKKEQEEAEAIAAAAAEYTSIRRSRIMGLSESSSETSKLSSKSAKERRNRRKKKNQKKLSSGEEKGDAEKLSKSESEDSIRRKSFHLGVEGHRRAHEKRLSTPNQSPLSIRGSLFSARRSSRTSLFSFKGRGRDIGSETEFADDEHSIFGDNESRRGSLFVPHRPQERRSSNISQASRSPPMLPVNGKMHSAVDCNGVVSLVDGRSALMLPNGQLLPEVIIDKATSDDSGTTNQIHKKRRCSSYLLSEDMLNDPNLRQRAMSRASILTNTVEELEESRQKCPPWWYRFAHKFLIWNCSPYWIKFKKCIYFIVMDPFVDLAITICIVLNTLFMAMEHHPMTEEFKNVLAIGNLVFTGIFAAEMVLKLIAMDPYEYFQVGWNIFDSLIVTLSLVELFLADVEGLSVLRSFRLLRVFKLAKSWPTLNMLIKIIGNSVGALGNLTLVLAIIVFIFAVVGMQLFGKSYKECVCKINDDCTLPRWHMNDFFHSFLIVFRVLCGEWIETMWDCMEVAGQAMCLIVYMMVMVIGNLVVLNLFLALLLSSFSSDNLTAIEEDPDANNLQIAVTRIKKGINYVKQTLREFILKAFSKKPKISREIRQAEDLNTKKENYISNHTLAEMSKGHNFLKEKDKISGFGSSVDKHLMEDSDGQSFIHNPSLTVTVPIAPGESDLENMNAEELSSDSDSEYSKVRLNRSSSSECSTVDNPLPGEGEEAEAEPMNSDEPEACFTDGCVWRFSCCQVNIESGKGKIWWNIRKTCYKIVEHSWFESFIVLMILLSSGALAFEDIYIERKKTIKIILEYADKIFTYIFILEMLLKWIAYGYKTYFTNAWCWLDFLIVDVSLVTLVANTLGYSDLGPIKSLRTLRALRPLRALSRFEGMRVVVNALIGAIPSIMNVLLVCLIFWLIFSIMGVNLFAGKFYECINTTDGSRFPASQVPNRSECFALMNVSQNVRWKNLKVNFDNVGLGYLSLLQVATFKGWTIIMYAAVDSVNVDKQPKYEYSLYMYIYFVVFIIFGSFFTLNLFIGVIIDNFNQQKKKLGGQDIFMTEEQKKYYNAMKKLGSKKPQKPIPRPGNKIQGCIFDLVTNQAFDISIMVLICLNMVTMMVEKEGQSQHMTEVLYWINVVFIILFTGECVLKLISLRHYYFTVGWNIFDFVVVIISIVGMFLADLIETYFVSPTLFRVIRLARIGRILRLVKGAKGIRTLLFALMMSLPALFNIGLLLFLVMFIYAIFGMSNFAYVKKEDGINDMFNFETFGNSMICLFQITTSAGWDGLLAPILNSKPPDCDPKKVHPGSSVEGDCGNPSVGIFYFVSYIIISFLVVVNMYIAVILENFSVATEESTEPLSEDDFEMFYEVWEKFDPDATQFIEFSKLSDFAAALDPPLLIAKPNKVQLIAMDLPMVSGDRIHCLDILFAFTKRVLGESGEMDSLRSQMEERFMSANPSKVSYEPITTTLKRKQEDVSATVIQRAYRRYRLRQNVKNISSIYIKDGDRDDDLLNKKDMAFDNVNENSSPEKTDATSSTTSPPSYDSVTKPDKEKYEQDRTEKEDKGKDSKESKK

Biological target: Nav1.7 (Homo sapiens, UniProt Q15858)
Details: Mol Pharmacol 74:1476-1484, 2008; cited from earlier work

ProTxII
selectivity of Nav1.7 inhibition: selectively inhibit Nav1.7
